Measured values taken from ChEMBL document CHEMBL1145982, “Novel dihydrofolate reductase inhibitors. Structure-based versus diversity-based library design and high-throughput synthesis and screening” (J Med Chem, 2003).

Amino acid sequences for entries named in this document (tags omitted). Residues count along the entry.
UniProt P0A017, 2-159 limits assumed: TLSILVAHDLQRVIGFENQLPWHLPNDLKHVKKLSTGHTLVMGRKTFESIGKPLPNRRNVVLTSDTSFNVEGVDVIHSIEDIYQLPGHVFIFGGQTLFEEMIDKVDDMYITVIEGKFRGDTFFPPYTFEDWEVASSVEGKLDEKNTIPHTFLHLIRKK

These molecules were tested against Dihydrofolate reductase (Staphylococcus aureus, UniProt P0A017) (assay: Inhibitory activity against TMP-Resistance Dihydrofolate reductase from Staphylococcus aureus 157/4696).

SMILES	IC50 [µM]
CSc1c2n(c3cc(Cl)ccc13)CCN(Cc1cnc(N)nc1N)C2	0.073
COc1ccc2c(c1)CN(Cc1cnc(N)nc1N)CC2c1cccc([N+](=O)[O-])c1 (stereo not given)	3.2
Nc1ncc(CN2CCc3c([nH]c4ccccc34)C2)c(N)n1	7.8
CC1c2ccc3c4ccccc4n(C)c3c2CCN1Cc1cnc(N)nc1N (stereo not given)	6.8
CC1c2cc(Cc3ccccc3)c(-c3ccccc3)n2CCN1Cc1cnc(N)nc1N (stereo not given)	0.042
